Chains of the proteins cited; added tags and fusions are not shown.
UniProt P21453, whole entry: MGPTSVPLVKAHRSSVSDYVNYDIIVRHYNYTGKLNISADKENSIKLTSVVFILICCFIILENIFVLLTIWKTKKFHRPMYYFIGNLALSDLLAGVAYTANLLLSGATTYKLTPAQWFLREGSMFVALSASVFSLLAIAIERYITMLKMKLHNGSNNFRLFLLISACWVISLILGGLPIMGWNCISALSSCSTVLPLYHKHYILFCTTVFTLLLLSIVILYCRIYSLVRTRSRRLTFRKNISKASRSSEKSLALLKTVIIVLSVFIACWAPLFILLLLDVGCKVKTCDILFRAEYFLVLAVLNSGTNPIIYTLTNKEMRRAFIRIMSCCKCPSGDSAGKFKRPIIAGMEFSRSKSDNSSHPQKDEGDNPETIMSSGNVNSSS
UniProt Q99500, whole entry: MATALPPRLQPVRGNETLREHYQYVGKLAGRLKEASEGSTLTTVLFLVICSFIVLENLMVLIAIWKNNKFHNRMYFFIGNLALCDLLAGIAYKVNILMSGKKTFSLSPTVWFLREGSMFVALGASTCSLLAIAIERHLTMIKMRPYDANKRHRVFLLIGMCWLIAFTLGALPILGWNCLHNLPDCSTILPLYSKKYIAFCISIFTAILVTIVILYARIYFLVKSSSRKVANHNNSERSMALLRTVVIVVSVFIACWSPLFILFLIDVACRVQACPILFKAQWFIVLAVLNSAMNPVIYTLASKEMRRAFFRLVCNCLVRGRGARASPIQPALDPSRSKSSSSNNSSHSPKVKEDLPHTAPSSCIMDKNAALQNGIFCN

According to US10166249B2, “Substituted bicyclic compounds” (BRISTOL-MYERS SQUIBB COMPANY, priority 2014, dated 2019):

Legend:
S1P1 [1] = target: T1, S1P1 (Homo sapiens (Human), UniProt P21453); assay: Receptor [35S] GTPγS binding assay (S1P1 GTPγS), membranes from S1P1/CHO cells; format: biochemical; details: read-out: S1P1 GTPγS; phosphate examples
S1P1 [2] = target: T1, S1P1; assay: S1P1 binding assay (33P-S1P radioligand competition, membranes from CHO cells); details: read-out: S1P1 Binding; phosphate examples
S1P3 (EDG3) = S1P3 (EDG3) (Homo sapiens (Human), UniProt Q99500); assay: Receptor [35S] GTPγS binding assay (S1P3 GTPγS), membranes from EDG3-Gal5-bla HEK293T cells; details: read-out: S1P3 GTPγS; phosphate examples
hS1P1 = hS1P1 (Homo sapiens (Human), UniProt P21453); assay: hS1P1 ERK phosphorylation (S1P1 pERK) in hS1P1/CHO cells; details: read-out: S1P1 pERK; phosphate examples

| Compound | EC50 (S1P1 [1]) [nM] | IC50 (S1P1 [2]) [nM] | EC50 (S1P3 (EDG3)) [nM] | EC50 (hS1P1) [nM] |
| --- | --- | --- | --- | --- |
| COc1ccc(OC[C@@H]2CCc3cc([C@H]4CC[C@](N)(COP(=O)(O)O)C4)ccc3C2)cc1C(C)(C)C | 100 to 1000 |  |  |  |
| COCCCC1CCc2cc([C@H]3CC[C@](N)(COP(=O)(O)O)C3)ccc2C1 (single isomer, unassigned) | 10 to 100 | < 10 | > 625 | < 10 |
